Measured affinities in a library of Ab-14 heavy chain variants

Data: MIT Lincoln Laboratory AlphaSeq set, Li et al. 2023, doi:10.1038/s41467-023-39022-2, as distributed in FLAb.

Target peptide (SARS-CoV-2 spike, HR2 region): PDVDLGDISGINAS

Ab-14 is the parent antibody, in scFv form: VH, then three GGGGS repeats, then VL. The light chain is unchanged in all variants.
VH: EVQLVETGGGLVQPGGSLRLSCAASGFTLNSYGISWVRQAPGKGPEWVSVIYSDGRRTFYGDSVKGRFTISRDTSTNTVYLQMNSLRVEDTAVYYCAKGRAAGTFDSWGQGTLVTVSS
VL: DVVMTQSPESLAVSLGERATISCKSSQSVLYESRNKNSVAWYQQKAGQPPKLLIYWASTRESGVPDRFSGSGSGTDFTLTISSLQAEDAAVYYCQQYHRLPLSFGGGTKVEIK

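The starting antibody came from a phage panning campaign against this peptide. The variants were designed computationally from a first round of random CDR variants and then made and measured. Group labels follow the data file (Ctrl: baseline library sampled from a position-specific scoring matrix, with some repeated check sequences; Rand: our label for a block that the file lists under HC and that is probably the random mutants of the ten best first-round binders; GP: Gaussian process model; GPLM: also part of the Gaussian process libraries; HC: hill climbing; Gen: genetic algorithm; Gibbs: Gibbs sampling; a sequence that several methods proposed may carry one label only). AlphaSeq pools MATa yeast showing the antibodies with MATalpha yeast showing the peptide. Pairs that bind mate more often; barcode pairs of the diploids are counted by sequencing. The ratio of observed to expected reads was calibrated, replicate by replicate, on BCL2-family standards whose Kd was known from biolayer interferometry. Mating was done six times.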

The parent's heavy chain CDRs are GFTLNSYGIS, VIYSDGRRTFYGDSVK, GRAAGTFDS; each variant's own CDRs replace them letter for letter. This list holds designs with at most six substitutions. Values are apparent Kd, the geometric mean of the replicates that gave a signal; lower means stronger binding. "no signal" marks a missing value. The strain was present, yet no cells mated with the target were sequenced in any replicate, which points to weak or no binding. The parent sequence was in this pool as ten entries: three were never detected, three once, and four in most replicates, with averages from 2.2 nM to 240 nM. Background: pairings of all heavy chain designs with three empty control strains gave a value in 1% of cases (median 120 nM, 5th percentile 7.0 nM). Values in that range, when seen in few replicates, are hard to tell from nonspecific mating. In the paper, a design with two or fewer of six values counts as a poor binder. The range of this assay differs from that of the first round, and the authors advise against merging the two. A sequence that the file lists under several names has all its replicates pooled.

With GFTLNSYGIS | VIYSDGRRTFYDDSVE | GRAAGQFDS [Ctrl] the result was 78 nM (4 of 6 replicates).
With GFTLNEYGIS | VIYSDGRRTSYGDSVK | GRAAGQFDE [Ctrl] the result was no signal (0 of 6 replicates).
With GFTLNSYGIS | VIYADGRRTIYGDSVK | GRAAGTNKS [Rand] the result was no signal (0 of 6 replicates).
With GFQLNSYGIS | VIYADGRRTFYADSVK | GRAAGTFDW [Ctrl] the result was 5.7 nM (4 of 6 replicates).
With GFSLNEYGIS | VIYSDGRRTFYGDSVK | GRDAGTFDS [GPLM_Gen] the result was 3.1 nM (6 of 6 replicates).
With GFWLNSYGIS | VIYSDGRRTFYIDSVK | GNAAGTFDS [GPLM_Gibbs] the result was 330 nM (3 of 6 replicates).
With GNSLNEYGIS | VIYSDGRRTFYTDSVK | GRTAGTFDS [GP_HC] the result was 230 nM (3 of 6 replicates).
With GFTLDSYGIS | VIYSDGRRTAYGDSVK | GRAAGTFDS [Ctrl] the result was 1.9 nM (6 of 6 replicates).
With FFTLNSYGIS | VIYADGRRTFYGDSVK | GRAAPTNKS [Rand] the result was no signal (0 of 6 replicates).
With GFTLNEYGIS | VIYSDGRRTFYGDSVK | GRLAGTFKM [Ctrl] the result was 170 nM (1 of 6 replicates).
With GFTLNEYGIS | VIYSDGRRTFYSDSVK | GQSAGTFDS [GP_HC] the result was 850 nM (1 of 6 replicates).
With GFDLNSYGIS | VIYSDGRRTFYGDSVK | GRAAWTFES [GP_HC] the result was no signal (0 of 6 replicates).
With GFTLNEYGIS | VIYSDGRRKFYGDSVK | GRIAGTFDS [Ctrl] the result was 1.3 nM (6 of 6 replicates).
With YFNLNSYGIS | VIYSDGRRTFYADSVK | GRQAGTFDS [GP_Gen] the result was 89 nM (6 of 6 replicates).
With GFTLNQYGIS | VIYSLGRRSFYSDSVK | GRAAGFFDS [Rand] the result was no signal (0 of 6 replicates).
With KFTLNSYGIS | VIYSDGQRTFYSDSVK | GQTAGTFDS [GP_Gibbs] the result was 7.7 nM (6 of 6 replicates).
With WFTLNDYGIS | VIYSDGRRTMYIDSVK | GRAAGTFDS [GP_HC] the result was no signal (0 of 6 replicates).
With GFTLNSYGIS | VIYSDGRRTFYRDAVK | GRAAGTFDS [Ctrl] the result was no signal (0 of 6 replicates).
With GFTLNSYGIS | VIYSDGRRTFYGDSVK | GMEAGTFDK [GP_Gibbs] the result was 23 nM (6 of 6 replicates).
With SFTLNSYGIS | VIYADGRRTFYGDSVK | GQAAGTFDL [GP_Gibbs] the result was 22 nM (6 of 6 replicates).
With GFTLNSYGIS | VIYRDGRRTFYIDSVK | GDAAGTSDS [Ctrl] the result was no signal (0 of 6 replicates).
With GFDLNSYGIS | VIYSDGRRTFYSDSVK | GVAAGTFDS [GPLM_Gibbs] the result was 3.7 nM (6 of 6 replicates).
With GFTLESYGIS | VIYSDGKRTFYSDSVK | GRAAGTFDS [GPLM_HC] the result was 7.9 nM (6 of 6 replicates).
With GFSLNSYGIS | VIYSDGRRTFYADSVK | GSTAGTFDS [GPLM_Gen] the result was 1.3 nM (6 of 6 replicates).
With GFSLNEYGIS | VIYSDGRRTFYGDSVK | GHAAGTFDL [GPLM_Gen] the result was 1.3 nM (6 of 6 replicates).
With GFTLNDYGIS | VIYSDGRRTFYIDSVK | GREAGTFDS [GPLM_Gen] the result was 550 pM (4 of 6 replicates).
With GFSLNEYGIS | VIYSDGRRTFYGDAVK | GRQAGTFDS [GP_Gen] the result was 780 pM (6 of 6 replicates).
With GFSLNSYGIS | VIYADGRRTFYGDSVK | GKAAGTFDV [GP_Gen] the result was 16 nM (6 of 6 replicates).
With GFNLNSYGIS | VIYSDGRRTFYDDSVK | GLLAGTFDS [GP_HC] the result was 5.8 nM (6 of 6 replicates).
With GFTLNDYGIS | VIYSDGRRTFYGDSVK | GRAAGTFES [Ctrl+GPLM_HC] the result was 110 nM (11 of 12 replicates).
With GFTLLSYGIS | VIYSDGRRTFYGDSVK | GRYAGTFDS [Ctrl] the result was no signal (0 of 6 replicates).
With GFTLNSYGIS | VIYSDGERTFYHDSVK | GRAQGPFDY [Ctrl] the result was no signal (0 of 6 replicates).
With GQTLNSYGIS | EIYADGRRTFYIDSVK | WRAAGTFVS [Ctrl] the result was no signal (0 of 6 replicates).
With KFTLNSYGIS | VIYSDGYRTFYGDSVK | GRYKGTFDS [Ctrl] the result was no signal (0 of 6 replicates).
With GFTLNSYGIS | VIYFDGRRTFYHDSVK | GRAAGTFDS [Ctrl] the result was 79 nM (1 of 6 replicates).
With GFTLNSYGIS | VIYSDGRRTFYQDSVK | GQLAGTFDD [GP_HC] the result was 1.9 nM (6 of 6 replicates).
With GFTLNSYGIS | VIYADGRRTFYGDDVK | GRAAGTFKM [GP_HC] the result was no signal (0 of 6 replicates).
With GFTLKSYGIS | VIYSDGRRTFYGDSVK | GQTAGTFDL [GP_Gibbs] the result was 95 nM (2 of 6 replicates).
With GHTLNSYGIS | VIYSDGLRTFYGDSVK | GRATGTFDS [Ctrl] the result was no signal (0 of 6 replicates).
With GFLLNDYGIS | VIYSDGRRTFYKDSVK | GRNAGTFDS [GP_HC] the result was 45 nM (6 of 6 replicates).
With GFELNEYGIS | VIYSDGRRTFYADWVK | GRTAGTFDS [GP_Gibbs] the result was 8.6 nM (5 of 6 replicates).
With GFWLNEYGIS | VIYSDGRRTFYMDSVK | GRTAGTFDS [GPLM_HC] the result was 150 nM (6 of 6 replicates).
With GFDLNSYGIS | VIYSDGRRTFYEDSVK | GQAAGTFDS [GPLM_Gen] the result was 3.7 nM (6 of 6 replicates).
With GFDLNSYGIS | VIYSDGRRTFYGDAVK | GRQAGTFDS [GP_Gen] the result was 1.4 nM (5 of 6 replicates).
With GFSLNSYGIS | VIYSDGRRTWYADSVK | GRAAGTFDS [GPLM_Gen] the result was 1.8 nM (6 of 6 replicates).

From the list, the first 6 with no signal in any replicate:

CDR-H1,CDR-H2,CDR-H3,group,Kd,detected
GFTLNEYGIS,VIYSDGRRTSYGDSVK,GRAAGQFDE,Ctrl,no signal,0/6
GFTLNSYGIS,VIYADGRRTIYGDSVK,GRAAGTNKS,Rand,no signal,0/6
FFTLNSYGIS,VIYADGRRTFYGDSVK,GRAAPTNKS,Rand,no signal,0/6
GFDLNSYGIS,VIYSDGRRTFYGDSVK,GRAAWTFES,GP_HC,no signal,0/6
GFTLNQYGIS,VIYSLGRRSFYSDSVK,GRAAGFFDS,Rand,no signal,0/6
WFTLNDYGIS,VIYSDGRRTMYIDSVK,GRAAGTFDS,GP_HC,no signal,0/6